Bounds are passed on as bounds.

Sequences of proteins named here, by UniProt entry; tags and fusion partners are left off.
UniProt P00533, whole entry, looked up: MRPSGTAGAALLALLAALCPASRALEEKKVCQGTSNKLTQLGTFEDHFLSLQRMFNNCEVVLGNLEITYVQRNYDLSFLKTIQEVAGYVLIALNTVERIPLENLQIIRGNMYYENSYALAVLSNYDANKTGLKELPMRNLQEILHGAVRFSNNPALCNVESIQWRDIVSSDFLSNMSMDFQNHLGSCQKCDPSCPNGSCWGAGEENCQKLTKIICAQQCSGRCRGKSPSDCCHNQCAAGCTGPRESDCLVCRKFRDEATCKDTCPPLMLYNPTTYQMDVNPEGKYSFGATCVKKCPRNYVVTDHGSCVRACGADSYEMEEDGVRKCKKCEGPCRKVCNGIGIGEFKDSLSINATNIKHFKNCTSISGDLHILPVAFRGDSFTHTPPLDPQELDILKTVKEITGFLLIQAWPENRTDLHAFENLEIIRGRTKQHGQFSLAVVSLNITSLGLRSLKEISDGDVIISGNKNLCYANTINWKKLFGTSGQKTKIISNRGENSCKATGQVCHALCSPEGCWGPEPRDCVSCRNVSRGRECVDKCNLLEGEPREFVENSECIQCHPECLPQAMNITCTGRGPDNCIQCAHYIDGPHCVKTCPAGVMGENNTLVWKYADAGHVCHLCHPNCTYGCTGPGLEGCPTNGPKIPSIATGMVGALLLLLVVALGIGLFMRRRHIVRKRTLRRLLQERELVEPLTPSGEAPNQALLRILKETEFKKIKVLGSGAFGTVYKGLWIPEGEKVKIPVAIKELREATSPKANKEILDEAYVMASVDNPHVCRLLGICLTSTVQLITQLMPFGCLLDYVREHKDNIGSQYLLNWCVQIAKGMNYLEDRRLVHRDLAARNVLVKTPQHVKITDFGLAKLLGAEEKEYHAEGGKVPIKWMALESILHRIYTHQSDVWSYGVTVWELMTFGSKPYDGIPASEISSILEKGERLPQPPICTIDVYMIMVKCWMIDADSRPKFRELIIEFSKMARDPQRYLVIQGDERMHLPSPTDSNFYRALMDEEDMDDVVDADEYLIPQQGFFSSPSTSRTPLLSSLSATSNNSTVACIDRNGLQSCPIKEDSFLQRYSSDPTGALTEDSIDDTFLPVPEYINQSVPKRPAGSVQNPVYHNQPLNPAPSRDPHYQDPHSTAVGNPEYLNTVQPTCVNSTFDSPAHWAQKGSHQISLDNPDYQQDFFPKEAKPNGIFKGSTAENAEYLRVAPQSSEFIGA

For the assay, the target named is EGFR (human) (UniProt P00533). Particulars: hn5.

As to `CS(=O)(=O)CCNCCCCOc1ccc2ncnc(Nc3ccc4c(cnn4Cc4cccc(F)c4)c3)c2c1`, the IC50 is less than 5 µM.

Values taken from the Kinase Knowledgebase extract (Sharma et al. 2016).
